# Experimental data as given in PubChem BioAssay AID2124 (Sanford-Burnham Center for Chemical Genomics, 2009).
# The list shows a part of the results, in another mix than the full data. Results filed as inconclusive are left out. Calls of active or inactive are those of the source. The rule behind the calls is not given here; tested in MIN6 cells.
# Test: GFP-wavelength compound autofluorescence in cells – imaging, high-content imaging, artefact control, dose response (AID 2124);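 note: cells exposed to compound for 48 hours before fixing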
# Conditions: GFP-channel autofluorescence, at 10 µM, hits give high values
structure (smiles),measurement,value
CP(=O)(Nc1cccc(Br)c1)Oc1ccccc1 (stereo unspecified),z-score,inactive: -0.38
